The source of these data is patent publication US7034208B1, “Ahas inhibiting herbicide resistant wheat and method for selection thereof” (BASF Aktiengellschaft, priority 1991, dated 2006).

For experiment [1], the system named is mutant wheat selections FS1-FS4 and Fidel. The format is in vivo. Particulars: postemergence, plant growth four weeks after treatment. An excerpt: This greenhouse test examines the level and spectrum of herbicide resistance of the mutant selections at the whole plant level. […] These lines are bulked according to their parental lines: FS1, FS2, FS3 and FS4. Fidel (wild-type) is used is a control and for performance comparison purposes. Five seeds from each of these lines (including Fidel) are planted per pot in six inch Azalea pots and are later thinned to three plants per pot. Three replicates are used per treatment (chemical and rate) for each line, and six replicates per wheat line are used as untreated controls. Plants are sprayed postemergence, 10 days after planting, with the following herbicides and rates: […]

Another experiment relates to wheat seeds. In words: Seed soak screen (Example 1, Step 1, Experiments 1-4). The format is in vivo. The method, then: The seeds are rinsed in sterile distilled water and then soaked in a herbicide concentration for a set period of time, as described below. Sets of twenty-five seeds are placed into 25 ml of the herbicide solution described below in a sterile 100×15 mm plastic petri dish and soaked for the designated time. The seeds are rinsed with water, dried with paper towels and planted (25 seeds/flat) approximately ½″ deep in 6×8 inch peat flats containing a moist, sterile, artificial soil, Metro Mix 350™ (Grace Company, Cambridge, Mass.). The treatments are evaluated at four weeks after treatment. The herbicides, rates and time periods evaluated are described below:
Each treatment is replicated four times.
Each treatment is replicated two times.
The protocol is as described above except that 35 seeds are soaked per petri dish; 25 seeds are still planted per flat. This experiment is repeated twice.

With `CC(C)C1(C)N=C(c2nc3ccccc3cc2C(=O)O)NC1=O` (stereo not drawn) [SCEPTER, 2-(4-isopropyl-4-methyl-5-oxo-2-imidazolin-2-yl)-3-quinolinecarboxylic acid], the “rate to which the mutant wheat is resistant” value in experiment [1] is recorded as “more than 640 g/ha”. Besides, in the experiment with wheat seeds (250-1500 uM for 48, 72 or 96 hours), the “effectiveness as selective agent in seed soak” value is on record as “not effective at any of the herbicide/exposure length combinations”. Besides, the “suitability for selection of resistant mutants” value in the experiment with wheat seeds (seed soak 1000 or 1500 uM for three days, Experiment 4) was “suitable for selection of imidazolinone resistant mutants with the problem of false positives minimized”.
